This is a sample that favours compounds with a hit; in the whole collection about 1.9% have one here.
FGF22 binding: FGF22 (human) thermal shift binding; recombinant FGF22 thermal shift, SYPRO orange fluorescence; percent of sucrose octasulfate shift, DMSO zero; actives 1.5% (n = 340,000); Q9HCT0; AID 651658; activity (Tm shift, normalised), % at 9.99 µM;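 active means mean Tm shift, scaled 0 neutral to 100 positive control, at about 1.3% or above, every replicate too, limit read from the data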
PglD DTNB: inhibitors of Campylobacter jejuni PglD acetyltransferase | purified PglD enzyme, DTNB colorimetric CoA detection | inhibition, % at 12.5 µM | actives 0.098% (n = 360,000); in the data active means inhibition above about 16%, passing the limit was not always enough
ERp5 inh: ERp5 (human) disulfide isomerase inhibition; ERp5 insulin aggregation, absorbance 650 nm, 90 min; actives 0.05% (n = 350,000); AID 651711; inhibition, % at 9.99 µM; Q15084;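 active means mean replicate inhibition above about 25%, with every replicate also reaching it, limit read from the data, passing the limit was not always enough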
PDI inh: PDI (human) enzyme inhibition; inhibition, % at 10 µM; actives 0.052% (n = 350,000); AID 588391; PDI insulin aggregation turbidity, A650, 90 min; P07237;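 active means mean inhibition across replicates of 30% or more, whatever share of single replicates reach that level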
ARNT TACC3 PPI: disrupts binding between human ARNT and TACC3. Q9Y6A5. AlphaScreen His-ARNT PAS-B/GST-TACC3 binding, luminescence; TACC3 fragment carries E629A point mutation. inhibition, % at 9.99 µM. actives 0.66% (n = 390,000). AID 623870;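 active means mean inhibition of replicates at least 50% and at least half of replicates each reaching 50%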;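 further: 0% = complete ARNT plus TACC3 wells and 100% = ARNT alone without TACC3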
Yeast UUG start: modulators of yeast start codon fidelity, primary screen, whole organism, S. cerevisiae, single point, plate reader | AID 602363, 2012 | S. cerevisiae UUG-firefly luciferase reporter, luminescence/redox ratio | activity score, % at 18.7 µM | hit rate 0.13% among 350,000;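 active = replicate mean at a twofold rise or more, about +100% in these data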;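 also: firefly luciferase made from a UUG start codon reports start codon fidelity; reporter light over untreated wells divided by growth signal over untreated wells; some hits fall short of that in this replicate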
Starred values were filed as active, the others as inactive; · = not tested or not shown; ! = not confirmed by another sample.

Molecule | PDI inh | ARNT TACC3 PPI | Yeast UUG start | ERp5 inh | PglD DTNB | FGF22 binding
O=C(N/N=C/c1c(O)n(C2CCCCC2)c(=S)[nH]c1=O)c1ccccc1 | 2 | 30 | -10 | 0 | 2 | 0
CC(CN1CCOCC1)C(C#N)(c1ccccc1)c1ccccc1 (centres undefined) | 1 | -27 | · | -4 | · | 43*
C=C(C)CC1(CC)C(=O)NC(=S)NC1=O | -2 | · | -20 | -1 | -3 | 44*
CC1(C)CC(=O)CC(C)(C)N1O | -5 | · | · | -9 | · | 45*
O=C(Cc1ccccn1)N1CCCCN2[C@@H](CO)[C@@H](c3ccc(-c4ccccc4)cc3)[C@@H]2C1 | · | 5 | -4 | 1 | 2 | 0
CC1=C(O)C(=O)C=C2C1=CC=C1C2(C)CCC2(C)C3CC(C)(C(=O)O)CCC3(C)CCC12C (centres undefined) | 63* | -2 | · | 11 | · | 0
O=C(Cc1ccccn1)N1CCCCN2[C@H](C1)[C@@H](c1ccc(C#Cc3ccccc3)cc1)[C@@H]2CO | · | 10 | 8 | -7 | -2 | 0
OC(CCNCCc1c[nH]c2ccccc12)C(F)(F)Cl (centres undefined) | -3 | -11 | · | 6 | · | 44*
O=C(CN1CC(c2ccccc2)CC1=O)NCc1ccc(F)cc1 (centres undefined) | · | · | 3 | 3 | 3 | 43*
O=C1OCCC1C(=O)c1ccccc1 (centres undefined) | 5 | · | · | -10 | · | 44*
Cc1ccccc1S(=O)(=O)N1[C@@H]2Cn3c(ccc(-c4cccnc4)c3=O)[C@H]1[C@@H](C(=O)O)[C@@H]2CO | · | 7 | · | 2 | -1 | 0
CCOP(=O)(OCC)c1cccc(O)c1 | -3 | -7 | -19 | 4 | · | 45*
CCCCC(=O)N/N=C/c1c(O)n(Cc2ccco2)c(=O)[nH]c1=O | 9 | 72* | -19 | · | 5 | ·
CCCCC(=O)N/N=C/c1c(O)n(CCCC)c(=S)[nH]c1=O | 5 | 61* | -22 | 4 | 0 | 0
CCCCC(=O)N/N=C/c1c(O)n(-c2cccc3ccccc23)c(=O)[nH]c1=O | 2 | 61* | · | 3 | · | 0
O=c1[nH]c(=O)n(-c2cccc3ccccc23)c(O)c1C=NCCCn1ccnc1 | -6 | -7 | -6 | · | 7 | ·
O=C(N/N=C/c1c(O)n(Cc2ccco2)c(=O)[nH]c1=O)c1ccccc1O | 7 | 65* | -17 | 0 | 2 | 0
Cc1ccc(OC(=O)N(C)C[C@@H]2OCc3ccccc3-c3c(n(C)c4ccccc34)C(=O)N([C@H](C)CO)C[C@@H]2C)cc1 | · | · | · | -4 | · | 0
CC(C)NC(=O)N1[C@@H]2Cn3c(ccc(-c4cccc(C(=O)N(C)C)c4)c3=O)[C@H]1[C@@H](C(=O)O)[C@@H]2CO | · | 18 | · | -1 | -3 | 0
COC(=O)[C@@H]1[C@@H](CO)[C@@H]2Cn3c(ccc(-c4ccccc4F)c3=O)[C@H]1N2Cc1ccccc1 | · | active | · | -5 | 1 | 0
Cc1cccc(OP(N)(N)=O)c1C | 1 | -4 | · | 9 | · | 43*
O=C(Cc1ccccc1)N1CCCCN2[C@H](CO)[C@H](c3ccc(C#CC4(O)CCCC4)cc3)[C@H]2C1 | · | -31 | 13 | 2 | 1 | 1
COc1ccc(C2(C#N)CCN(C)CC2)cc1 | -1 | -1 | -16 | 4 | 6 | 0
COc1cc(C2(C#N)CCN(C)CC2)cc(OC)c1OC | -2 | -7 | · | -1 | -2 | 43*
O=C(c1ccc2c(c1)ncn2-c1ccc(F)cc1F)N1CCC2(CC1)OCCO2 | -10 | -5 | · | 0 | · | 44*

Record cards, from the list above. Order of values: PDI inh	ARNT TACC3 PPI	Yeast UUG start	ERp5 inh	PglD DTNB	FGF22 binding
`COc1cc(C2(C#N)CCN(C)CC2)cc(OC)c1OC` across the screens: -2	-7	·	-1	-2	43*
`CC1(C)CC(=O)CC(C)(C)N1O` across the screens: -5	·	·	-9	·	45*
`Cc1cccc(OP(N)(N)=O)c1C` across the screens: 1	-4	·	9	·	43*
`COc1ccc(C2(C#N)CCN(C)CC2)cc1` across the screens: -1	-1	-16	4	6	0
`O=C(Cc1ccccn1)N1CCCCN2[C@@H](CO)[C@@H](c3ccc(-c4ccccc4)cc3)[C@@H]2C1` across the screens: ·	5	-4	1	2	0

Continuation:
Molecule | PDI inh | ARNT TACC3 PPI | Yeast UUG start | ERp5 inh | PglD DTNB | FGF22 binding
COC(=O)[C@H]1[C@H](CO)[C@H]2Cn3c(ccc(-c4cccc(OC)c4)c3=O)[C@@H]1N2CC1CC1 | · | -5 | · | 0 | -1 | 0
COc1ccc(C#Cc2ccc([C@@H]3[C@H]4CN(C(=O)Cc5ccccc5)CCCCN4[C@H]3CO)cc2)cc1 | · | -9 | 2 | 8 | -6 | -1
Cn1cnc([N+](=O)[O-])c1Sc1ccc([N+](=O)[O-])cc1 | 2 | 1 | -13 | -1 | 4 | 43*
O=[N+]([O-])c1ccc(C(c2ccc([N+](=O)[O-])cc2)c2ccc([N+](=O)[O-])cc2)cc1 | 0 | -2 | -3 | -2 | -4 | 0
N#CC1=C(N)Oc2c(c(=O)oc3ccccc23)C1c1ccc([N+](=O)[O-])o1 (centres undefined) | -1 | 12 | · | 3 | · | 43*
C[C@H]1CN([C@@H](C)CO)C(=O)CCCn2cc(nn2)CO[C@H]1CN(C)C(=O)Oc1ccc2ccccc2c1 | · | -3 | · | -2 | 3 | 0
C[C@H](CO)N1C[C@H](C)[C@@H](CN(C)C(=O)Oc2ccc3ccccc3c2)OCc2cn(nn2)CCCC1=O | -2 | -6 | -3 | 54*! | 2 | 0
COC(=O)[C@H]1[C@H](CO)[C@H]2Cn3c(ccc(C4=CCCCC4)c3=O)[C@@H]1N2Cc1ccccn1 | · | 11 | -3 | -1 | -3 | 0
O=C(Cc1ccccc1)N1CCCCN2[C@H](C1)[C@H](c1ccc(-c3ccccc3)cc1)[C@@H]2CO | · | 8 | 1 | 1 | -2 | 0
CCCCCCn1c(=O)c(C(=O)Nc2cnccn2)c(O)c2ccccc21 | 2 | 20 | · | -2 | · | 43*
CC(=O)O[C@@]12CO[C@@H]1C[C@H](OC1OCC(O)C(O)C1O)[C@@]1(C)C(=O)[C@H](O)C3=C(C)[C@@H](OC(=O)[C@H](O)[C@@H](NC(=O)c4ccccc4)c4ccccc4)C[C@@](O)([C@@H](OC(=O)c4ccccc4)C12)C3(C)C (some centres undefined) | · | 4 | 14 | 5 | 0 | 0
CCCCCC(=O)N[C@@H](c1ccccc1)[C@@H](O)C(=O)O[C@H]1C[C@@]2(O)[C@@H](OC(=O)c3ccccc3)C3[C@](C)(C(=O)[C@H](O)C(=C1C)C2(C)C)[C@@H](OC1OCC(O)C(O)C1O)C[C@H]1OC[C@@]31OC(C)=O (some centres undefined) | · | 57* | -7 | 3 | 1 | 0
CC(C)N=C(NC(C)C)N1CC1 | -4 | · | -8 | 0 | -7 | 43*
COc1ccc(-c2cc(=Nc3cccc(C(=O)O)c3)c3cc(C)ccc3o2)cc1 | 5 | -15 | · | 0 | · | 1
COc1ccc(-c2cc(=NCCCCCC(=O)O)c3cc(C)ccc3o2)cc1 | -7 | 61* | · | 4 | · | 0
CC1=NN(c2ccccc2)C(=O)/C1=C/c1c(O)[nH]c(=O)[nH]c1=O | -4 | 3 | -14 | 2 | -3 | 1.4*
CC1=NN(c2ccccc2)C(=O)/C1=C/c1c(O)[nH]c(=S)[nH]c1=O | 2 | 7 | · | · | · | ·
N#Cc1cccc(-c2ccc([C@@H]3[C@H]4CN(C(=O)Cc5ccncc5)CCCCN4[C@H]3CO)cc2)c1 | · | -2 | -15 | -4 | 3 | 0

Screening results: PubChem BioAssay, Broad Institute
